The record followed here is PMC9866366 (Pharmaceutics, 2023).

One series deals with BxPC-3 cells. The following applies: 24 h exposure, medium with or without 5 mM glucose, up to 1 µM. The protocol:
(§1) Cells were seeded at a density of 25,000 cells/well (BxPC-3) and 30,000 cells/well (PANC-1) in Nunc MicroWell 96-Well Black Optical-Bottom Plates with Polymer Base (total volume: 100 µL). Cells were first incubated overnight at 37 °C, 5% CO2 to permit adherence, after which the medium in each well was aspirated, briefly washed once with 100 µL/well of PBS (pH 7.4) and replaced with 100 µL of either RPMI 1640 (BxPC-3, #11879020) or DMEM (PANC-1, #11966025) supplemented with or without 5 mM glucose to create the ‘normal glucose’ and ‘low glucose’ media, respectively. This 5 mM glucose concentration was selected to reflect the physiological concentration of glucose in plasma. […] Endpoint fluorescence was quantified as described above.
(§2) Blank correction (wells containing medium only) was first performed on the raw fluorescence–concentration data from the plate reader. Cell viability was then calculated as a percentage by normalizing to the fluorescence of the wells containing the lowest drug concentration (50.8 pM for BxPC-3, 457 pM for PANC-1). The resulting data from three independent experiments (each in technical duplicate) was then plotted on GraphPad Prism 9 and analyzed using the built-in ‘[Inhibitor] vs. response—Variable slope (four parameters)’ equation.

The next series deals with PANC-1 cells. Conditions: 24 h exposure, medium with or without 5 mM glucose, up to 9 µM. The method, then: as §1, §2

trichoderin A [(3)]: the “Cytotoxicity against BxPC-3 under 'low glucose' vs 'normal glucose' (in words)” value with BxPC-3 cells is “selective toxicity under the ‘low glucose’ condition”. Further, the “Cytotoxicity against PANC-1 under 'low glucose' vs 'normal glucose' (in words)” value with PANC-1 cells was “selective toxicity under the ‘low glucose’ condition”.
